## CycPeptMPDB entries from one study

Data: CycPeptMPDB; original report Furukawa et al. 2016, doi:10.1021/acs.jmedchem.6b01246.

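Conditions beyond the assay type are not listed; see the original paper. Other peptides of the study may be missing here. Peptides that the database sets to -10, its floor, are left out.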

PAMPA is the parallel artificial membrane permeability assay, which has no cells and reads passive diffusion. Caco-2: transport across a human colon carcinoma cell monolayer. Values are log10 P with P in cm/s, so -5 is more permeable than -7. "n/a" marks a cell with nothing listed here.

structure (SMILES),PAMPA (log10 cm/s),Caco-2 (log10 cm/s)
CCCC[C@@H]1NC(=O)[C@H](CC(C)C)N(C)C(=O)CN(CC2CCCCC2)C(=O)[C@H](Cc2ccc3ccccc3c2)NC(=O)CN(CC)C(=O)[C@H]2CCCN2C1=O,-6.58,n/a
CCCC[C@@H]1NC(=O)[C@H](CC(C)C)N(C)C(=O)CN(CCOC)C(=O)[C@H](Cc2ccc3ccccc3c2)NC(=O)CN(CCCCc2ccccc2)C(=O)[C@H]2CCCN2C1=O,-7.74,n/a
CCCC[C@@H]1NC(=O)[C@H](CC(C)C)N(C)C(=O)CN(CCCc2cnn(C)c2)C(=O)[C@H](Cc2ccccc2)NC(=O)CN(CC)C(=O)[C@H]2CCCN2C1=O,-5.70,n/a
CCCC[C@@H]1NC(=O)[C@H](CC(C)C)N(C)C(=O)CN(Cc2ccccc2)C(=O)[C@H](Cc2ccccc2)NC(=O)CN(Cc2ccccc2Cn2cccn2)C(=O)[C@H]2CCCN2C1=O,-6.46,n/a
CCCC[C@@H]1NC(=O)[C@H](CC(C)C)N(C)C(=O)CN(CCCc2cnn(C)c2)C(=O)[C@H](CC(C)C)NC(=O)CN(CC)C(=O)[C@H]2CCCN2C1=O,-6.00,n/a
CCCC[C@@H]1NC(=O)[C@H](CC(C)C)N(C)C(=O)CN(CCCN2CCCC2=O)C(=O)[C@H](CC(C)C)NC(=O)CN(Cc2ccc(Cl)cc2)C(=O)[C@H]2CCCN2C1=O,-5.68,-6.17
CCCC[C@@H]1NC(=O)[C@H](CC(C)C)N(C)C(=O)CN(CCCc2cnn(C)c2)C(=O)[C@H](CC(C)C)NC(=O)CN(Cc2cc(CC(C)C)on2)C(=O)[C@H]2CCCN2C1=O,-5.33,n/a
CCCC[C@@H]1NC(=O)[C@H](CC(C)C)N(C)C(=O)CN(CCCN2CCCC2=O)C(=O)[C@H](C)NC(=O)CN(Cc2ccccc2Cn2cccn2)C(=O)[C@H]2CCCN2C1=O,-7.45,n/a
CCCC[C@@H]1NC(=O)[C@H](CC(C)C)N(C)C(=O)CN(CCCN2CCCC2=O)C(=O)[C@H](Cc2ccc3ccccc3c2)NC(=O)CN(CCC)C(=O)[C@H]2CCCN2C1=O,-5.76,n/a
CCCC[C@@H]1NC(=O)[C@H](CC(C)C)N(C)C(=O)CN(CCOC)C(=O)[C@H](Cc2ccccc2)NC(=O)CN(CCN2CCOCC2)C(=O)[C@H]2CCCN2C1=O,-6.38,n/a
CCCC[C@@H]1NC(=O)[C@H](CC(C)C)N(C)C(=O)CN(CCCc2ccccc2)C(=O)[C@H](CC(C)C)NC(=O)CN(Cc2ccccc2Cn2cccn2)C(=O)[C@H]2CCCN2C1=O,-6.24,n/a
CCCC[C@@H]1NC(=O)[C@H](CC(C)C)N(C)C(=O)CN(CC2CCOCC2)C(=O)[C@H](Cc2ccccc2)NC(=O)CN(Cc2ccc(Cl)cc2)C(=O)[C@H]2CCCN2C1=O,-6.00,n/a
CCCC[C@@H]1NC(=O)[C@H](CC(C)C)N(C)C(=O)CN(CCCc2ccccc2)C(=O)[C@H](C)NC(=O)CN(Cc2ccc3c(c2)OCO3)C(=O)[C@H]2CCCN2C1=O,-5.27,n/a
CCCCCN1CC(=O)N(C)[C@@H](CC(C)C)C(=O)N[C@@H](CCCC)C(=O)N2CCC[C@@H]2C(=O)N(Cc2ccc(Cl)cc2)CC(=O)N[C@@H](C)C1=O,-5.27,n/a
CCCC[C@@H]1NC(=O)[C@H](CC(C)C)N(C)C(=O)CN(CCCc2cnn(C)c2)C(=O)[C@H](C)NC(=O)CN(CC)C(=O)[C@H]2CCCN2C1=O,-7.33,n/a

The last 2 entries again:

| structure (SMILES) | PAMPA (log10 cm/s) | Caco-2 (log10 cm/s) |
|---|---|---|
| CCCCCN1CC(=O)N(C)[C@@H](CC(C)C)C(=O)N[C@@H](CCCC)C(=O)N2CCC[C@@H]2C(=O)N(Cc2ccc(Cl)cc2)CC(=O)N[C@@H](C)C1=O | -5.27 | n/a |
| CCCC[C@@H]1NC(=O)[C@H](CC(C)C)N(C)C(=O)CN(CCCc2cnn(C)c2)C(=O)[C@H](C)NC(=O)CN(CC)C(=O)[C@H]2CCCN2C1=O | -7.33 | n/a |